PubChem BioAssay AID1486 (The Scripps Research Institute Molecular Screening Center, 2009)
This is a selection; strong and weak results do not stand in their true shares. The source made the active and inactive calls.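 Rule for the calls: active = inhibition above a per-campaign cutoff, the mean inhibition of all tested compounds plus 3 SD (cut at about 27% in these data); inactive = the rest.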

Experiment: growth loss in parental Ba/F3 cells – cell-based, murine pro-B, CellTiter-Glo luminescence, counter-screen for JAK2V617F inhibitor project (AID 1486);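 note: 0% = DMSO wells and 100% = JAK Inhibitor I control wells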
Settings: Ba/F3 parental viability, CellTiter-Glo ATP luminescence; at 5.6 µM; hits give high values

Row | Structure (SMILES) | inhibition
1 | Cc1c2c(nc3ccccc13)SC(C(Cl)Cl)C2 (stereo not given) | inactive: 4.11%
2 | CCN(CC)C(=S)SC(NC=O)C(Cl)(Cl)Cl (stereo not given) | inactive: 2.79%
3 | CC(C)NC(=O)NP(=O)(Oc1ccccc1)Oc1ccccc1 | inactive: 8.28%
4 | O=[N+]([O-])c1cc([N+](=O)[O-])c(-c2ccn[nH]2)s1 | inactive: 5.02%
5 | CC(C)c1ccc(OP(=O)(Nc2ccccn2)Oc2ccccc2F)cc1 (stereo not given) | inactive: -2.1%
6 | ClCCSc1nnc(-c2cccnc2)o1 | inactive: 5.52%
7 | Cc1ccc2nc3c(c(C)c2c1)CC(C(Cl)Cl)S3 (stereo not given) | inactive: 0%
8 | Cc1ccc(OP(=O)(Nc2ccc([N+](=O)[O-])cn2)Oc2ccc(C)cc2)cc1 | inactive: 3.65%
9 | O=[As](O)(c1ccc(O)cc1)c1ccccc1O | inactive: -3.52%
10 | C[As](=O)(O)c1cccc(C(=O)O)c1 | inactive: 7.83%
11 | O=[N+]([O-])c1ccc(Nc2ccc(Oc3ccc([N+](=O)[O-])cc3[N+](=O)[O-])cc2)c([N+](=O)[O-])c1 | inactive: -1.33%
12 | Cc1cc(SC(NC=O)C(Cl)(Cl)Cl)ncn1 (stereo not given) | inactive: 8.65%
13 | O=P(Nc1ccccn1)(c1cccc2ccccc12)c1cccc2ccccc12 | inactive: 8.22%
14 | CCOC(=O)Nc1cccc([As](=O)(O)O)c1 | inactive: -3.56%
15 | Cc1cc(SC(NC(=O)c2ccccc2)C(Cl)(Cl)Cl)nc(C(C)C)n1 (stereo not given) | inactive: 5.37%
16 | CCOC(=O)Nc1ccc([As](=O)(O)O)c(O)c1 | inactive: -4.74%
17 | CCC(C)N(CC(C)C)C(=S)SC(NC(C)=O)C(Cl)(Cl)Cl (stereo not given) | inactive: 3.5%
18 | CCOC(=O)c1ccc(NC(=O)C(C)(CCl)SC)cc1 (stereo not given) | inactive: -2.1%
19 | O=C(COc1ccccc1)OC1CN2CCC1CC2 (stereo not given) | inactive: -1.84%
20 | COP1(=S)c2c(C)nn(CCC#N)c2N=C(c2ccc(F)cc2)N1C (stereo not given) | inactive: 5.16%
